Data taken from publication PMC10660311, “Synthetic Dual Cysteine-ADP Ribosylated Peptides from the Androgen Receptor are Recognized by the DTX3L/PARP9 Complex” (ACS Chemical Biology, 2023).
pKd: −log10 of the molar value.

Key:
[1] = molecular target: dual ADP-ribosylated AR peptide 1, bis-ADP-ribosylated AR(280-294): CF-RPTPC(ADPr)APLAEC(ADPr)KGSL-OH; experiment: fluorescence polarisation; as a1 with 50 uM free ADP-ribose added as competitor; complex up to 2000 nM
[2] = molecular target: dual ADP-ribosylated AR peptide 1, bis-ADP-ribosylated AR(280-294): CF-RPTPC(ADPr)APLAEC(ADPr)KGSL-OH; experiment: fluorescence polarisation; 50 nM CF-labelled AR peptide; recombinant protein or preassembled complex titrated (2500 nM or 2000 nM highest, 2-fold serial dilution); 20 mM Tris-HCl pH 7.5, 50 mM NaCl, 0.1 mM EDTA, 2 mM DTT; RT, 45 min; triplicate; fit for specific binding with Hill slope

Substance: DTX3L/PARP9 complex (from UniProt Q8TDB6 1-740; Q8IXQ6 1-854)
- percent of binding left with 50 uM free ADP-ribose [1]: 17%
- pKd [2]: 7.09
